# In patent US20130158072A1, “KAPPA OPIOID RECEPTOR BINDING LIGANDS” (Research Triangle Institute, priority 2010, published 2013):
# The chains behind the UniProt entries cited, without tags or fusion partners.
# UniProt P35372, whole entry: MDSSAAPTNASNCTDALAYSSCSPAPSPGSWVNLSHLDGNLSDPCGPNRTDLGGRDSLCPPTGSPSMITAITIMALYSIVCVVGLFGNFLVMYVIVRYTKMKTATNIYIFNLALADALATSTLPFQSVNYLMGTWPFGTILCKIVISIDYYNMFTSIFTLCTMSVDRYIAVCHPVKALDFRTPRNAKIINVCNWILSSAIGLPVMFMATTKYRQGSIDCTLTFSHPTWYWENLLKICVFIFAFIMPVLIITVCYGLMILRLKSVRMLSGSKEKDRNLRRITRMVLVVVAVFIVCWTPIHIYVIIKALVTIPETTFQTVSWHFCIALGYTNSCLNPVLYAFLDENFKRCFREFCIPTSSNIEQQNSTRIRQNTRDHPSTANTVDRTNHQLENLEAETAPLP
# Molecular target: T1, cloned human μ-opioid receptor (Homo sapiens, UniProt P35372)
# T1 construct: expressed in transfected cells; host or cells: CHO cells
# Experiment: Inhibition of DAMGO-stimulated [35S]GTPγS binding
# Type: biochemical
row,Compound,Kb [nM]
1,"COc1cccc([C@]2(C)CCN(C[C@@H](NC(=O)[C@@]3(C)Cc4ccc(O)cc4CN3)C(C)C)C[C@@H]2C)c1 [Compound 8h, (3R)-7-Hydroxy-N-[(1S)-1-{[(3R,4R)-4-(3-methoxyphenyl)-3,4-dimethylpiperidin-1-yl]methyl}-2-methylpropyl]-3-methyl-1,2,3,4-tetrahydroisoquinoline-3-carboxamide]",123 ± 30
2,"COc1cccc([C@]2(C)CCN(C[C@@H](NC(=O)[C@@]3(C)Cc4ccc(OC)cc4CN3)C(C)C)C[C@@H]2C)c1 [Compound 8l, (3R)-7-Methoxy-N-[(1S)-1-{[(3R,4R)-4-(3-methoxyphenyl)-3,4-dimethylpiperidin-1-yl]methyl}-2-methylpropyl]-3-methyl-1,2,3,4-tetrahydroisoquinoline-3-carboxamide]",1450 ± 490
3,"CC[C@H](C)[C@@H](CN1CC[C@@](C)(c2cccc(OC)c2)[C@@H](C)C1)NC(=O)[C@@]1(C)Cc2ccc(O)cc2CN1 [Compound 8n, (3R)-7-Hydroxy-N-[(1S,2S)-1-{[(3R,4R)-4-(3-methoxyphenyl)-3,4-dimethylpiperidin-1-yl]methyl}-2-methylbutanyl)-3-methyl-1,2,3,4-tetrahydroisoquinoline-3-carboxamide]",59.1 ± 16

# Molecular target: T2, cloned human δ-opioid receptor (Homo sapiens, UniProt P41143)
# T2 construct: expressed in transfected cells; host or cells: CHO cells
# Experiment: Inhibition of DPDPE-stimulated [35S]GTPγS binding
# Type: biochemical
row,Compound,Kb [nM]
1,"CC[C@H](C)[C@@H](CN1CC[C@@](C)(c2cccc(OC)c2)[C@@H](C)C1)NC(=O)[C@H]1Cc2ccc(O)cc2CN1 [Compound 8f, (3R)-7-Hydroxy-N-[(1S,2S)-1-{[(3R,4R)-4-(3-methoxyphenyl)-3,4-dimethylpiperidin-1-yl]methyl}-2-methylbutanyl]-1,2,3,4-tetrahydroisoquinoline-3-carboxamide]",1170 ± 400
2,"CC[C@H](C)[C@@H](CN1CC[C@@](C)(c2cccc(O)c2)[C@@H](C)C1)NC(=O)[C@@]1(C)Cc2ccc(O)cc2CN1 [Compound 8i, (3R)-7-Hydroxy-N-[(1S,2S)-1-{[(3R,4R)-4-(3-hydroxyphenyl)-3,4-dimethylpiperidin-1-yl]methyl}-2-methylbutanyl]-3-methyl-1,2,3,4-tetrahydroisoquinoline-3-carboxamide]",149 ± 13
3,"COc1ccc2c(c1)CN(C)[C@@](C)(C(=O)N[C@H](CN1CC[C@@](C)(c3cccc(O)c3)[C@@H](C)C1)C(C)C)C2 [Compound 8o, (3R)-7-Methoxy-N-[(1S)-1-{[(3R,4R)-4-(3-hydroxyphenyl)-3,4-dimethylpiperidin-1-yl]methyl}-2-methylpropyl]-2,3-dimethyl-1,2,3,4-tetrahydroisoquinoline-3-carboxamide]",117 ± 30
